From patent US8350077B2, “Amides of creatine, method of their preparation, and remedy possessing a neuroprotective activity” (VERTEX Closed Joint Stock Company, priority 2008, dated 2013)

Key:
[1] = Stability of Creatine amides in human blood plasma (RP-HPLC peak areas, 37° C.); conditions: peak area relative to start
Method: The detection was carried out on the wave length 220 nm. The samples dosing on the column was carried out by the loop 20 μl.
(§1) For the study of Creatine amides stability, 1 ml of water or blood plasma was added to 200 μl of aqueous solution of starting amide with a concentration of 2÷3 mg/ml then shaken; a probe volume of 200 μl was taken up immediately and analysis of an initial concentration of the Creatine amide was carried out. Further, the solution was placed into a vibro-thermostat at a temperature of 37° C., then aliquote 200 μl was taken up in 0.5, 1, and 3 hours of thermostatics. 20 μl 10% solution of trichloroacetic acid was added to the taken probe, and kept for 15 min at temperature (−)24° C., then centrifuged at 6000×g for 5 minutes for sedimentation of plasma proteins, supernatant was taken up and its analysis was carried out.
(§2) For evaluation of samples' stability, peak areas of a corresponding compound at the beginning of experiment and at selected time intervals were compared (Tables 1, 2).

[2] = Stability of Creatine amides in rat blood plasma (RP-HPLC peak areas, 37° C.); conditions: peak area relative to start
Method: Study of the Creatine derivatives stability in aqueous solution, as well as in human and rat blood plasma was carried out by the method of Reversed Phase HPLC using a chromatography system, known as Beckman System Gold™ (USA) in the following configuration: Programmable Solvent Module 126, Manual Injector Rheodyne 7725i, Programmable Detector Module 166, featured with the Beckman System Gold Chromatography Software™. The analysis was carried out on the column Luna 5μ C18(2) 100 Å 150×4.6 mm (Phenomenex, USA) with the precolumn Guard Cartridge C18 at the flow rate 1 ml/min in the linear gradient of acetonitrile: for analogue from the Example 1 from 5 to 25% of acetonitrile in 20 min (A: 0.1% of […]—H2O, B: 0.1% of H3PO4-acetonitrile), in case of substance from the Examples 2÷8: from 3 to 23% of acetonitrile in 20 minutes. The detection was carried out on the wave length 220 nm. The samples dosing on the column was carried out by the loop 20 μl.
as §1, §2

Substance | Stability in human blood plasma, 0 h [1] [%] | Stability in human blood plasma, 0.5 h [1] [%] | Stability in human blood plasma, 1 h [1] [%] | Stability in human blood plasma, 3 h [1] [%] | Stability in a rat blood plasma, 0 h [2] [%] | Stability in a rat blood plasma, 0.5 h [2] [%] | Stability in a rat blood plasma, 1 h [2] [%] | Stability in a rat blood plasma, 3 h [2] [%]
Creatinyl-Glycine Ethylamide Acetate [Example 6] | 100 | 97 | 95 | 95 | 100 | 97 | 97 | 95
Creatinyl-Tyrosine Amide Succinate [Example 5] | 100 | 98 | 97 | 93 | 100 | 98 | 97 | 93
